Yeast mating assay 1: variants of the scFv Ab-14

All variants were tested on one target, the spike HR2 peptide PDVDLGDISGINAS (SARS-CoV-2).

Parent: Ab-14, a human scFv built as VH, a (GGGGS)3 linker, VL. Only the CDRs of the heavy chain vary.
VH: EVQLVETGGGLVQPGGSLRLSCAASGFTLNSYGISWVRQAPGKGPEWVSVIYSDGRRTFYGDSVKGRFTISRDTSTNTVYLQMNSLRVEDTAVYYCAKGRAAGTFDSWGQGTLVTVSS
VL: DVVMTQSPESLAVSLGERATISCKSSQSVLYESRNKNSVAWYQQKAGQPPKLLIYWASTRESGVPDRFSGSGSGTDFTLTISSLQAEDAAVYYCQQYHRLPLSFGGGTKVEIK

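Phage display of a naive human antibody library on the peptide gave the parent. The library (AAYL49) carries one to three amino acid substitutions per variant, with no insertions or deletions. The scFvs were displayed on barcoded MATa yeast, the peptide on MATalpha yeast. Mating (16 h, 30 °C) was followed by selection of diploids and sequencing of their barcodes. Each replicate has its own calibration line, from reference interactions of the BCL2 family. Mating was done three times.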

Substitutions are numbered in sequence along the VH above, starting at 1 (not Kabat). The read-out is the apparent dissociation constant on a log10 scale (nM): the lower, the stronger. A pair that was not seen in that replicate is written "ND"; this usually means weak binding, but a binder can also be missed. Empty control strains, which show no peptide, gave a signal in 15% of pairings with library AAYL49; the median was 4.06 and 95% of these signals were weaker than 2.83. No background was subtracted. For each scFv, signals with the empty controls are counted beside the result, with their mean in brackets.

{"changes": "L29V T58E", "log10 Kd (nM) by replicate": "2.17 2.38 2.46", "empty controls": "1 of 9 (4.36)"}
{"changes": "V64A F105S", "log10 Kd (nM) by replicate": "ND ND 4.13", "empty controls": "1 of 9 (2.82)"}
{"changes": "G33V I51W D106Q", "log10 Kd (nM) by replicate": "ND ND ND", "empty controls": "1 of 9 (4.22)"}
{"changes": "F27G S35D A102F", "log10 Kd (nM) by replicate": "ND 3.23 5.36", "empty controls": "5 of 9 (3.54)"}
{"changes": "L29G Y32V D62N", "log10 Kd (nM) by replicate": "ND ND ND", "empty controls": "2 of 9 (2.88)"}
{"changes": "G26T Y32R S53I", "log10 Kd (nM) by replicate": "ND ND 6.12", "empty controls": "4 of 9 (3.93)"}
{"changes": "Y60K V64E G103V", "log10 Kd (nM) by replicate": "ND ND ND", "empty controls": "2 of 9 (3.66)"}
{"changes": "G33D T104G D106W", "log10 Kd (nM) by replicate": "ND ND ND", "empty controls": "1 of 9 (3.67)"}
{"changes": "S63L A101W F105M", "log10 Kd (nM) by replicate": "ND ND ND", "empty controls": "0 of 9"}
{"changes": "S53N V64D A101T", "log10 Kd (nM) by replicate": "ND ND ND", "empty controls": "2 of 9 (3.82)"}
{"changes": "D54W T58M Y60T", "log10 Kd (nM) by replicate": "6.12 ND ND", "empty controls": "4 of 9 (4.17)"}
{"changes": "Y32N T58N G103A", "log10 Kd (nM) by replicate": "ND 4.11 4.88", "empty controls": "2 of 9 (3.70)"}
{"changes": "N30V R57D Y60C", "log10 Kd (nM) by replicate": "ND ND ND", "empty controls": "0 of 9"}
{"changes": "T28M N30P S31C", "log10 Kd (nM) by replicate": "ND ND ND", "empty controls": "0 of 9"}
{"changes": "F59H K65H", "log10 Kd (nM) by replicate": "ND 2.96 ND", "empty controls": "0 of 9"}
{"changes": "T58R T104L S107K", "log10 Kd (nM) by replicate": "ND ND ND", "empty controls": "1 of 9 (3.01)"}
{"changes": "S35N A101S G103M", "log10 Kd (nM) by replicate": "1.06 1.05 1.19", "empty controls": "0 of 9"}
{"changes": "I51G", "log10 Kd (nM) by replicate": "ND ND ND", "empty controls": "0 of 9"}
{"changes": "N30K G55L R56I", "log10 Kd (nM) by replicate": "ND 3.23 5.24", "empty controls": "3 of 9 (3.63)"}
{"changes": "Y32A G61N", "log10 Kd (nM) by replicate": "ND ND ND", "empty controls": "1 of 9 (3.61)"}
{"changes": "T28L F59H Y60R", "log10 Kd (nM) by replicate": "ND ND ND", "empty controls": "0 of 9"}
{"changes": "D62T G99D D106G", "log10 Kd (nM) by replicate": "ND 4.21 ND", "empty controls": "1 of 9 (4.41)"}
{"changes": "T28E I51F R100G", "log10 Kd (nM) by replicate": "3.59 2.70 3.20", "empty controls": "3 of 9 (4.20)"}
{"changes": "I51L Y52F T58W", "log10 Kd (nM) by replicate": "ND ND ND", "empty controls": "0 of 9"}
{"changes": "A102W", "log10 Kd (nM) by replicate": "ND 3.60 ND", "empty controls": "3 of 9 (3.86)"}

Extract of 2 entries:

{"changes": "S53N V64D A101T", "log10 Kd (nM) by replicate": "ND ND ND", "empty controls": "2 of 9 (3.82)"}
{"changes": "S63L A101W F105M", "log10 Kd (nM) by replicate": "ND ND ND", "empty controls": "0 of 9"}

From the AlphaSeq antibody data of Engelhart et al. 2022 (doi:10.1038/s41597-022-01779-4), copy in the FLAb collection.